# Only a part of the results on these compounds is given; other tests are left out.
# Tested on: wheat
# Experiment: Wheat growth after one-time watering with products (Example 7)
# Format: in vivo
# Design: Shoot length / Root length: unit not given here
# Details: one-time watering 1000 μg/ml, 200 ml for 20 grains; day 5
substance,measurement,value
Ammonium nitrate,Emergence (%),50%
same,Root length,4.2
same,Shoot length,7.0
